Where two headings read alike, the source gives them in different places.
Assays:
[1] = system: EMT6 (breast cell carcinoma); experiment: In vitro proliferation assay, EMT6; assay type: cell-based, murine; conditions: at 100 nM against EMT6 (p<0.01)
CT26 (colon carcinoma) = experiment: In vitro proliferation assay, CT26; assay type: cell-based, murine; conditions: at 1000 nM against CT26 (p<0.01, data not shown)
[2] = system: RENCA (renal cell carcinoma); experiment: In vitro proliferation assay, RENCA; assay type: cell-based, murine; conditions: at 10 nM against RENCA (p<0.03)
B16 (malignant melanoma) = experiment: In vitro proliferation assay, B16; assay type: cell-based, murine; conditions: at 10 nM against B16 (p<0.03)
NGF = conditions: 100 nM, 48 hours, L929 fibroblasts, p<0.03
[3] = Calcemic activity, daily intraperitoneal injections in mice; assay type: in vivo, C57/B16 mice; conditions: for weight loss: 7 days; for blood ionized calcium: day 7
[4] = 10 mg pCPP:SA wafers loaded 0.5%, intracranial, 12 days
EMT6 breast carcinoma = conditions: pCPP:SA wafers loaded 0.5% w/w in the flank
[5] = wafers loaded at 2.1% (w/w), 30% ethanol/70% phosphate buffer pH 7.4, 37° C.
[6] = Hypercalcemic toxicity of wafers, intraflank vs intracranial; assay type: in vivo,  mice; conditions: 5 mg pCPP:SA wafer loaded 0.1%
[7] = drug loading of pCPP:SA (20:80) wafers implanted in brain of mice; weight loss monitored

## C=C1/C(=C\C=C2/CCC[C@]3(C)[C@@H]([C@H](C)/C=C/C=C/C(O)(CC)CC)CC[C@@H]23)CC(O)C[C@H]1CO (stereo partly shown) [MCW-068-Y-EE]
[1]
  antiproliferative activity: significant antiproliferative activity
CT26 (colon carcinoma)
  antiproliferative activity: significant antiproliferative activity
[2]
  antiproliferative activity: significant antiproliferative activity
B16 (malignant melanoma)
  antiproliferative activity: significant antiproliferative activity

## C=C1/C(=C\C=C2/CCCC3(C)[C@@H]([C@H](C)OCCCC(O)(CC)CC)CC[C@@H]23)CC(O)C[C@H]1CO (stereo partly shown) [MCW-005-YB]
NGF
  increase in NGF expression compared to solvent controls: 40%
[3]; 1 mg/kg/day i.p.
  weight loss: no weight loss
  blood ionized calcium: no weight loss or significant rise in blood ionized calcium
[3]; 10 mg/kg/day i.p.
  weight loss: no weight loss
  blood ionized calcium: no weight loss or significant rise in blood ionized calcium
[3]; 100 mg/kg/day i.p.
  weight loss: no weight loss
  blood ionized calcium: no weight loss or significant rise in blood ionized calcium
[1]
  antiproliferative activity: significant antiproliferative activity
[4]
  weight loss: no weight loss
EMT6 breast carcinoma
  toxicity in the treatment arm: unexpected lethal toxicity
EMT6 breast carcinoma; not statistically significant
  growth of EMT6 solid tumors: inhibits the growth of EMT6 solid tumors
[5]
  period of continuous drug release: 110 h
[5]; 110 hours
  drug release (total): 50.2%
[6]; intracranial
  signs of toxic hypercalcemia: no signs of toxic hypercalcemia
[6]; intracranial, 7 days
  weight loss: no significant weight loss
[6]; intracranial, day 7
  blood ionized calcium levels: no significant weight loss or rises in blood ionized calcium levels
[6]; intraflank
  signs of toxic hypercalcemia: no signs of toxic hypercalcemia
CT26 (colon carcinoma)
  antiproliferative activity: significant antiproliferative activity
[7]
  highest tolerated dose: 1%
[2]
  antiproliferative activity: significant antiproliferative activity
B16 (malignant melanoma)
  antiproliferative activity: significant antiproliferative activity
